{"sequences": {"note": "By UniProt entry, the sequences of proteins in these tests, tags left out.", "UniProt P53816, whole entry": "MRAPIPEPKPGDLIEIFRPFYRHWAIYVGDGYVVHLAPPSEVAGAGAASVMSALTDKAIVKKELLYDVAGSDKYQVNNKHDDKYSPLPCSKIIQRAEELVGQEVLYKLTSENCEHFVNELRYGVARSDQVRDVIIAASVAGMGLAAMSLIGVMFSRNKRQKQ"}, "source": "patent US11091428B2", "about": "(HAPLOGEN GMBH, priority 2016, dated 2021)", "molecular_target": "PLA2G16 (Homo sapiens, UniProt P53816)", "test": "Enzyme activity assay for PLA2G16 (Red/Green BODIPY PC-A2 fluorescence)", "conditions": "read-out: IC50 values of the compounds determined in the enzyme activity assay for PLA2G16; His-tagged PLA2G16, 4 min pre-incubation, 2 nM to 50 μM", "excerpt": "A cDNA for PLA2G16(NM_007069) was custom-synthesized by Genscript (Piscataway, USA) and inserted into a pET-based bacterial expression vector [Moffatt, B. A. and Studier, F. W. (1986) J. Mol. Biol. 189, 113-130; Rosenberg, A. H., Lade, B. N., Chui, D., Lin, S., Dunn, J. J., and Studier, F. W. (1987) Gene 56, 125-135], enabling the expression of N-terminally Hexa-His-tagged PLA2G16. E. coli BL21(DE3) (Agilent) were transformed with pET-His-PLA2G16according to the manufacturer's instructions and plated on Carbenicillin-containing agar plates (final concentration: 100 μg/mL). […] Purified fractions were analyzed by SDS-PAGE followed by Coomassie staining to assess the purity.\nActivity of the protein was assessed as follows: Red/Green BODIPY® PC-A2 (Invitrogen, 1 mM in DMSO) was mixed with equal volumes of 1,2-Dioleoyl-sn-glycero-3-phosphocholine (DOPC; Sigma Aldrich, 10 mM in Ethanol) and 1,2-Dioleoyl-sn-glycero-3-phospho-rac-(1-glycerol) (DOPG; Sigma Aldrich, 10 mM in Ethanol) and 0.5 volumes of Cholesterol (CHOL; Sigma Aldrich, 10 mM in Ethanol) and vortexed for 5 s. […]\nIn order to evaluate their inhibitory potential, compounds were dissolved at 10 mM concentration in DMSO and directly spotted into assay plates (Corning, Cat. No. 3576) using acoustic liquid transfer (Labcyte Echo 525). […] The relative increase of fluorescence over time is referred to as the enzyme activity. […]", "data": [{"smiles": "CC(C)C(=O)NCCCNC(=O)C(=O)[C@H]1CCC(=O)N1Cc1ccccc1", "values": [{"measurement": "IC50", "value": "< 1", "unit": "µM"}]}]}
